{
  "sequences": {"note": "Chains of the proteins cited; added tags and fusions are not shown.", "UniProt P30550, whole entry, species assumed": "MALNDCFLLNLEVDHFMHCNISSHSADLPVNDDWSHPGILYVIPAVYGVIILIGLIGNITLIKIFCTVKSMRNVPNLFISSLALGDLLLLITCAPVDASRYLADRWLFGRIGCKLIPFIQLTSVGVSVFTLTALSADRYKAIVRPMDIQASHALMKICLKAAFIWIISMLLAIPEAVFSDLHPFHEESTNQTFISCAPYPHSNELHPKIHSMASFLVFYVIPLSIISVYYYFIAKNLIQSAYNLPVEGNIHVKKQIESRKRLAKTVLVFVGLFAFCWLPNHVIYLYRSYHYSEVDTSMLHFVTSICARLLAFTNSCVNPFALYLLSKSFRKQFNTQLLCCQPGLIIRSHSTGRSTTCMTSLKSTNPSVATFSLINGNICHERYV"},
  "source": "patent US20060160157A1",
  "about": "“Method, compositions and classification for tumor diagnostics and treatment” (priority 2005, published 2006)",
  "origin": "cited, not measured here",
  "target": "GRP-R (Homo sapiens, UniProt P30550)",
  "settings": "radiolabeled bombesin as radioligand",
  "data": [
    {"substance": "gastrin releasing peptide [GRP]", "values": [
      {"measurement": "GRP-R binding selectivity (rank order of affinity)", "result": "GRP >bombesin> neuromedin"}
    ]}
  ]
}
